Measured values published in patent US4956379A, “Pyrazole carboxylic acids and esters and inhibition of blood platelet aggregation therewith” (Bristol-Myers Squibb Company, priority 1990, dated 1990).
≈ marks a conversion by molar mass, not a printed value.

Each compound was assayed on human platelet aggregation (ADP-induced, platelet rich plasma) (assay: cells). Details: read-out: Inhibition of Human Platelet Aggregation, IC50 Vs ADP.

First: O=C(O)COc1cccc(CCn2cc(-c3ccccc3)c(-c3ccccc3)n2)c1 [Example 2, [3-[2-(3,4-Diphenyl-1H-pyrazol-1-yl)ethyl]phenoxy]acetic Acid]
Second: COC(=O)COc1cccc(CCn2cc(-c3ccccc3)c(-c3ccccc3)n2)c1 [1(a), Methyl [3-[2-(3,4-diphenyl-1H-pyrazol-1-yl)ethyl]phenoxy]acetate]
The IC50 of the first is 1.7-fold higher: 0.35 mg/L (≈ 0.878 µM) for the first, 0.21 mg/L (≈ 0.509 µM) for the second.

Compared with `COC(=O)COc1cccc(CCc2cc(-c3ccccc3)n(-c3ccccc3)n2)c1` [Example 4, Methyl [3-[2-(1,5-diphenyl-1H-pyrazol-3-yl)ethyl]phenoxy]acetate], `O=C(O)COc1cccc(CCc2cc(-c3ccccc3)n(-c3ccccc3)n2)c1` [Example 5, [3-[2-(1,5-Diphenyl-1H-pyrazol-3-yl)ethyl]phenoxy]acetic Acid] is 2-fold higher in IC50: 0.33 mg/L (≈ 0.8 µM) for the first, 0.67 mg/L (≈ 1.68 µM) for the second.

`COC(=O)COc1cccc(CCn2ncc(-c3ccccc3)c2-c2ccccc2)c1` [1(b), Methyl [3-[2-(4,5-diphenyl-1H-pyrazol-1-yl)ethyl]phenoxy]acetate] and `O=C(O)COc1cccc(CCn2ncc(-c3ccccc3)c2-c2ccccc2)c1` [Example 3, [3-[2-(4,5-Diphenyl-1H-pyrazol-1-yl)ethyl]phenoxy]acetic Acid] are within 1.5-fold of each other in IC50: 0.2 mg/L (≈ 0.485 µM) for the first, 0.3 mg/L (≈ 0.753 µM) for the second.
